Values quoted from earlier work, collected in US10144908B2, “Liquid soap having enhanced antibacterial activity” (Conopco, Inc., priority 2013, dated 2018).

Settings: in water at 25° C.

Substance | Ksp
Silver salicylate | 1.5e-05 mol/L
Silver oxide | 2.1e-08 mol/L
